{"source": "patent US20130012465A1", "about": "(Boehringer Ingelheim International GmbH, priority 2009, published 2013)", "test_system": "SUM149 Xenografts", "test": "triple negative, EGFR positive SUM149 Xenografts in mice", "format": "in vivo", "conditions": "10 mg/kg/q2w"}
{"substance": "Herceptin: trastuzumab (herceptin), protein kinase receptor antagonist not classified under the synthetic small molecules", "values": [{"measurement": "T/C [%] Day 42", "result": 153, "unit": "%"}]}
